Measured values from US20080293712A1, “Benzo[C][2,7]Naphtyridine Derivatives, Methods of Making Thereof and Methods of Use Thereof” (WYETH, priority 2007, published 2008).
pIC50: −log10 of the molar value.

Target: T1, PDK-1 (Homo sapiens, UniProt O15530)
T1 sequence (O15530 1-556): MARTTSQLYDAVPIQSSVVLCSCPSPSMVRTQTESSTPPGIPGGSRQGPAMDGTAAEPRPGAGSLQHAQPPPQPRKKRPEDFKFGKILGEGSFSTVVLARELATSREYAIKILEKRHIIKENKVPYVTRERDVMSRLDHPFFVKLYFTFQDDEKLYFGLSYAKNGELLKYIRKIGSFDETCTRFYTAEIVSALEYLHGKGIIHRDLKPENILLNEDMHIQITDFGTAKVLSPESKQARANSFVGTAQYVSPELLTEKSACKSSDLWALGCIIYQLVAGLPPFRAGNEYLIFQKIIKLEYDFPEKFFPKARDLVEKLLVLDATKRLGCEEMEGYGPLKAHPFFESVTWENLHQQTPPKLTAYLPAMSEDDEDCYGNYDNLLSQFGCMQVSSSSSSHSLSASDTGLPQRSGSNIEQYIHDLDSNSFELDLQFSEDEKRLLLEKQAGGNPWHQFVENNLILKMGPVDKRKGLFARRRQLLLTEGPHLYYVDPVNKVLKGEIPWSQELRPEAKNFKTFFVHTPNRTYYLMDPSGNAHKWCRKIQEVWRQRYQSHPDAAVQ
Experiment: PDK-1 kinase inhibition ELISA assay (phosphorylation of His6-tagged SGK1 S422D by PDK-1)
Type: biochemical

- pIC50: 7.15
Structure (SMILES): COCCOc1cc2ncc3c(N)nc(-n4ccnc4)cc3c2cc1OC [Ia-48, 2-(1H-imidazol-1-yl)-9-methoxy-8-(2-methoxyethoxy)benzo[c]-2,7-naphthyridin-4-amine]
